{"source": "patent US11666671B2", "about": "“Spatial mapping of kidney functions” (Northwestern University, priority 2018, dated 2023)", "assay": "Renal histology (immunofluorescence) and renal tubular handling of the carriers (FIGS. 3, 4)", "conditions": "^99mTc/HYNIC-labelled carriers"}
{"substance": "Duramycin", "values": [{"measurement": "renal tubular handling / fate of the carrier", "result": "excreted through urination"}]}
